Experiments:
[1] = in vivo; cited from earlier work
[2] = target: T1, human amylin receptor (hAmyR3) (Homo sapiens, UniProt O60896+P30988); experiment: Human amylin receptor in vitro potency assay (CRE-luciferase reporter, BHK cells); format: cell-based; conditions: Table 4b; reference and comparator compounds; read-out: Human AmyR3 potency [EC50 (pM)];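 further: BHK cells expressing human calcitonin receptor plus RAMP3 (amylin-3 receptor) with a CRE-luciferase reporter, agonist activity read as luminescence from cAMP-driven transcription, 7-point serial dilutions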
T1 construct: host or cells: BHK cells (Hollex-1 line: human calcitonin receptor (a) + CRE-Luc), further transfected with human RAMP3

Protein sequences, listed by entry. Tags and fused reporters are not part of them. Residues count along the entry.
UniProt O60896, 24-148: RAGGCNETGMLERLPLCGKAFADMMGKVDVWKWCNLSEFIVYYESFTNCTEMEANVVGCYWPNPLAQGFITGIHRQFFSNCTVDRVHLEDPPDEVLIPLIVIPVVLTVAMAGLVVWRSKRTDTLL
UniProt P30988, 25-474: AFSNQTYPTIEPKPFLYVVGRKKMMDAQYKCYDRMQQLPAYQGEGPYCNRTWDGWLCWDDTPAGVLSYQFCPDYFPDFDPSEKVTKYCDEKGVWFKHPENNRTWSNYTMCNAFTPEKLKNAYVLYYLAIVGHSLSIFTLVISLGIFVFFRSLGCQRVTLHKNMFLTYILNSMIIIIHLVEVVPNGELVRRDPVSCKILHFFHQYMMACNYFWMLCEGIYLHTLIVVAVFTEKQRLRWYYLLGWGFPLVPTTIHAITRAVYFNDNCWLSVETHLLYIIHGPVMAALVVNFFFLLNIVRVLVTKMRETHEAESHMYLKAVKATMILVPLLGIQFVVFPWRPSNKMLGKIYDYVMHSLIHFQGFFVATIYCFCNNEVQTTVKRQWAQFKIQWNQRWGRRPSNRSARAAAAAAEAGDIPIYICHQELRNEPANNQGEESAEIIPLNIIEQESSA

## CC[C@H](C)[C@H](NC(=O)[C@@H]1CCCN1C(=O)CNC(=O)[C@H](Cc1ccccc1)NC(=O)[C@H](CC(N)=O)NC(=O)[C@H](CC(N)=O)NC(=O)[C@H](CO)NC(=O)[C@H](CO)NC(=O)[C@H](Cc1c[nH]cn1)NC(=O)[C@@H](NC(=O)[C@H](CC(C)C)NC(=O)[C@H](Cc1ccccc1)NC(=O)[C@H](CC(N)=O)NC(=O)[C@H](C)NC(=O)[C@H](CC(C)C)NC(=O)[C@H](CCCNC(=N)N)NC(=O)[C@H](CCC(N)=O)NC(=O)[C@@H](NC(=O)[C@H](C)NC(=O)[C@@H]1CSSC[C@H](NC(=O)[C@@H](N)CCCCN)C(=O)N[C@@H](CC(N)=O)C(=O)N[C@@H]([C@@H](C)O)C(=O)N[C@@H](C)C(=O)N[C@@H]([C@@H](C)O)C(=O)N1)[C@@H](C)O)C(C)C)C(=O)N[C@@H](CC(C)C)C(=O)N1CCC[C@H]1C(=O)N1CCC[C@H]1C(=O)N[C@H](C(=O)N[C@@H](CC(N)=O)C(=O)N[C@H](C(=O)NCC(=O)N[C@@H](CO)C(=O)N[C@@H](CC(N)=O)C(=O)N[C@H](C(=O)N[C@@H](Cc1ccc(O)cc1)C(N)=O)[C@@H](C)O)C(C)C)[C@@H](C)O [Pramlintide, reference compound]
[1]
  biological half-life: less than 1 hour
[2]
  EC50: 7.8 pM

— patent US20230331803A1, “CO-AGONISTS OF THE GLP-1 AND AMYLIN RECEPTORS” (priority 2020, published 2023)
